Protein sequences, listed by entry. Tags and fused reporters are not part of them. Lines headed by an entry give the natural chain unless they say otherwise; changes in a name come on top.
UniProt O95180: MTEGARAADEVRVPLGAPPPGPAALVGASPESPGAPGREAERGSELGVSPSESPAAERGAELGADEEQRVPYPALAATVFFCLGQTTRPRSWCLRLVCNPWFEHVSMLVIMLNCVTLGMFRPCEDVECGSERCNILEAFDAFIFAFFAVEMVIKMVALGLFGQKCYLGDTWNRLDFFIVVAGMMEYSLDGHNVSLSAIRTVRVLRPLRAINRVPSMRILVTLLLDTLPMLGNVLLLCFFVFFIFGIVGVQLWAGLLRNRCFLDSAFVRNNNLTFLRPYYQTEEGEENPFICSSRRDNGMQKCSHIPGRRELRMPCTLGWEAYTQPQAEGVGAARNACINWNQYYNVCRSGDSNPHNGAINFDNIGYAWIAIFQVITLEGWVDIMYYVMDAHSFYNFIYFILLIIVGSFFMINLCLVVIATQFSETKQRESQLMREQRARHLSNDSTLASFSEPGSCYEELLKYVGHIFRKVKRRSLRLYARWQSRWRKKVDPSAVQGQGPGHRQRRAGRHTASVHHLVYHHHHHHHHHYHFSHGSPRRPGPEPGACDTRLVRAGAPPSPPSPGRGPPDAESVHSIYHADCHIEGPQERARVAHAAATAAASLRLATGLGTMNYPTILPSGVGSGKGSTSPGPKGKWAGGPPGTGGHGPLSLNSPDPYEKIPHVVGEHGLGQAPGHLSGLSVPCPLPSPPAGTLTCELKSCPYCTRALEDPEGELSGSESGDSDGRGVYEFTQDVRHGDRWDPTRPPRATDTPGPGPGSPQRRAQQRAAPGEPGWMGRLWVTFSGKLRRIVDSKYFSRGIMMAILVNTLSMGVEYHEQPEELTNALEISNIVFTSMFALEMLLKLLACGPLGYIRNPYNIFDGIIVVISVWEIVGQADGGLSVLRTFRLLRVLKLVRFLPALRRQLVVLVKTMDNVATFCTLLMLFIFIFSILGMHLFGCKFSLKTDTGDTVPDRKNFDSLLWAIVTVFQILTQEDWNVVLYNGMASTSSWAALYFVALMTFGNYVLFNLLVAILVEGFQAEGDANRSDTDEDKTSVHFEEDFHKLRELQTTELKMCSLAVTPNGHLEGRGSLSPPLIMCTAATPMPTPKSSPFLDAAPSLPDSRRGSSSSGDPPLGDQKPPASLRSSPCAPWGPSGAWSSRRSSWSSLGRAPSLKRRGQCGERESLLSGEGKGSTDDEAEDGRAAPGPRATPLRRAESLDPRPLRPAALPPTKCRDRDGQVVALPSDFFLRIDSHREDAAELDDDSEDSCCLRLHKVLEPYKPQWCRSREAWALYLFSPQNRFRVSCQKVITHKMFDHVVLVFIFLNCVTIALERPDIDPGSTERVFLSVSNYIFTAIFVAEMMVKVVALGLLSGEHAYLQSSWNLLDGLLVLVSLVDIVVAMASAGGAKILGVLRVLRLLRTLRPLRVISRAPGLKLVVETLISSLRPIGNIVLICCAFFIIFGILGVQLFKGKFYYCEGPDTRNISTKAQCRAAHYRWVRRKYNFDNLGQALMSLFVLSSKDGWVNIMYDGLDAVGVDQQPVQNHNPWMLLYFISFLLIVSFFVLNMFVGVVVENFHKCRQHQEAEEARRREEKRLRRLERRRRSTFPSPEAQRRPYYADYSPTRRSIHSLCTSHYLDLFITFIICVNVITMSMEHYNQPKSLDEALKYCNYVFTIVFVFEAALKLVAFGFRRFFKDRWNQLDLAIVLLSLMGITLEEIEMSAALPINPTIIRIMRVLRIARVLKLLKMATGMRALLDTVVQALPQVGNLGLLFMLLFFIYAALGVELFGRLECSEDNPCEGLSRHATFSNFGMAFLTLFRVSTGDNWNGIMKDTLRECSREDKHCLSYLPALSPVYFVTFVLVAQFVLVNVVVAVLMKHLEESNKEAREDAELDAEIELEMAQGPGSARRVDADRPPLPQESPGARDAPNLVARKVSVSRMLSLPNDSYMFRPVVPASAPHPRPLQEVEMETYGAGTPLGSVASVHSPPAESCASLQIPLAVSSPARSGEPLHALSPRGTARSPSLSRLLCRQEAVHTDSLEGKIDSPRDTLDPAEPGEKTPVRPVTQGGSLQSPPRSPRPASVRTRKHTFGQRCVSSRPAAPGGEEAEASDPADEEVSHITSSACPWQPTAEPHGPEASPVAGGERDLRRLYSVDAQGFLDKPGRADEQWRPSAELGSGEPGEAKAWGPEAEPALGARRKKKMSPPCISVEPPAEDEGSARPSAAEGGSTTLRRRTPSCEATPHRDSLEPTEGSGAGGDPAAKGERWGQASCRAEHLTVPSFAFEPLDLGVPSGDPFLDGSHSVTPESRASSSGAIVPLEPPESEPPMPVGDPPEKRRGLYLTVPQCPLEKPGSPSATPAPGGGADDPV

In US8664179B2, “Identification of novel antagonist toxins of T-type calcium channel for analgesic purposes” (Centre National de la Recherche Scientifique (CNRS), priority 2009, dated 2014):

Biological target: T1, human Cav3.2 (Homo sapiens, UniProt O95180)
T1 construct: expressed in transfected cells; host or cells: Xenopus laevis oocytes (cDNA injection)
Assay: Double microelectrode imposed-voltage recording of CaV3.2 current in Xenopus oocytes
Type: cell-based
Details: FIG. 4, CaV3.2 currents before and during application

CC[C@H](C)[C@H](NC(=O)[C@H](CCCCN)NC(=O)[C@@H]1CSSC[C@@H]2NC(=O)[C@@H]3CCCN3C(=O)[C@H](CCCNC(=N)N)NC(=O)[C@H](CCC(=O)O)NC(=O)[C@H](CO)NC(=O)[C@H](CC(=O)O)NC(=O)[C@@H]3CSSC[C@H](NC(=O)[C@H](C(C)C)NC(=O)[C@H](CC(C)C)NC(=O)CNC(=O)[C@H](CCC(=O)O)NC(=O)[C@H](CSSC[C@H](NC(=O)[C@@H](N)Cc4ccc(O)cc4)C(=O)N[C@@H](CCC(N)=O)C(=O)N[C@@H](CCCCN)C(=O)N[C@@H](Cc4ccccc4)C(=O)N[C@@H](CC(C)C)C(=O)N[C@@H](Cc4c[nH]c5ccccc45)C(=O)N[C@@H]([C@@H](C)O)C(=O)N3)NC2=O)C(=O)N[C@@H](CCCNC(=N)N)C(=O)N[C@@H](CC(C)C)C(=O)N[C@@H](Cc2c[nH]c3ccccc23)C(=O)N1)C(=O)N[C@@H](CC(N)=O)C(=O)O [natural toxin]
shift of the current-voltage relation toward the positive voltages: about 20 mV
